Measured values: publication PMC7759402 (Journal of Analytical Methods in Chemistry, 2020)

Experiment: in vivo
Details: male, Sprague-Dawley, rat, po, 10 mg/kg

Cc1nc2c(-c3cnc(N)nc3)nc(N3CCOCC3)nc2n1C(C)C [VS-5584]
AUC(0-inf): 929 ± 228 ng·h/mL
AUC(0-t): 865 ± 192 ng·h/mL
CL/F: 188 mL/min/kg
Vd/F: 54.1 ± 29.6 L/kg
half-life: 3.28 ± 1.37 h
